As usually defined, the IC50 is the concentration at which inhibition is half-maximal. Read a high IC50 as a need for much substance.

Protein sequences, listed by entry. Tags and fused reporters are not part of them.
UniProt Q9Y5Y9, whole entry: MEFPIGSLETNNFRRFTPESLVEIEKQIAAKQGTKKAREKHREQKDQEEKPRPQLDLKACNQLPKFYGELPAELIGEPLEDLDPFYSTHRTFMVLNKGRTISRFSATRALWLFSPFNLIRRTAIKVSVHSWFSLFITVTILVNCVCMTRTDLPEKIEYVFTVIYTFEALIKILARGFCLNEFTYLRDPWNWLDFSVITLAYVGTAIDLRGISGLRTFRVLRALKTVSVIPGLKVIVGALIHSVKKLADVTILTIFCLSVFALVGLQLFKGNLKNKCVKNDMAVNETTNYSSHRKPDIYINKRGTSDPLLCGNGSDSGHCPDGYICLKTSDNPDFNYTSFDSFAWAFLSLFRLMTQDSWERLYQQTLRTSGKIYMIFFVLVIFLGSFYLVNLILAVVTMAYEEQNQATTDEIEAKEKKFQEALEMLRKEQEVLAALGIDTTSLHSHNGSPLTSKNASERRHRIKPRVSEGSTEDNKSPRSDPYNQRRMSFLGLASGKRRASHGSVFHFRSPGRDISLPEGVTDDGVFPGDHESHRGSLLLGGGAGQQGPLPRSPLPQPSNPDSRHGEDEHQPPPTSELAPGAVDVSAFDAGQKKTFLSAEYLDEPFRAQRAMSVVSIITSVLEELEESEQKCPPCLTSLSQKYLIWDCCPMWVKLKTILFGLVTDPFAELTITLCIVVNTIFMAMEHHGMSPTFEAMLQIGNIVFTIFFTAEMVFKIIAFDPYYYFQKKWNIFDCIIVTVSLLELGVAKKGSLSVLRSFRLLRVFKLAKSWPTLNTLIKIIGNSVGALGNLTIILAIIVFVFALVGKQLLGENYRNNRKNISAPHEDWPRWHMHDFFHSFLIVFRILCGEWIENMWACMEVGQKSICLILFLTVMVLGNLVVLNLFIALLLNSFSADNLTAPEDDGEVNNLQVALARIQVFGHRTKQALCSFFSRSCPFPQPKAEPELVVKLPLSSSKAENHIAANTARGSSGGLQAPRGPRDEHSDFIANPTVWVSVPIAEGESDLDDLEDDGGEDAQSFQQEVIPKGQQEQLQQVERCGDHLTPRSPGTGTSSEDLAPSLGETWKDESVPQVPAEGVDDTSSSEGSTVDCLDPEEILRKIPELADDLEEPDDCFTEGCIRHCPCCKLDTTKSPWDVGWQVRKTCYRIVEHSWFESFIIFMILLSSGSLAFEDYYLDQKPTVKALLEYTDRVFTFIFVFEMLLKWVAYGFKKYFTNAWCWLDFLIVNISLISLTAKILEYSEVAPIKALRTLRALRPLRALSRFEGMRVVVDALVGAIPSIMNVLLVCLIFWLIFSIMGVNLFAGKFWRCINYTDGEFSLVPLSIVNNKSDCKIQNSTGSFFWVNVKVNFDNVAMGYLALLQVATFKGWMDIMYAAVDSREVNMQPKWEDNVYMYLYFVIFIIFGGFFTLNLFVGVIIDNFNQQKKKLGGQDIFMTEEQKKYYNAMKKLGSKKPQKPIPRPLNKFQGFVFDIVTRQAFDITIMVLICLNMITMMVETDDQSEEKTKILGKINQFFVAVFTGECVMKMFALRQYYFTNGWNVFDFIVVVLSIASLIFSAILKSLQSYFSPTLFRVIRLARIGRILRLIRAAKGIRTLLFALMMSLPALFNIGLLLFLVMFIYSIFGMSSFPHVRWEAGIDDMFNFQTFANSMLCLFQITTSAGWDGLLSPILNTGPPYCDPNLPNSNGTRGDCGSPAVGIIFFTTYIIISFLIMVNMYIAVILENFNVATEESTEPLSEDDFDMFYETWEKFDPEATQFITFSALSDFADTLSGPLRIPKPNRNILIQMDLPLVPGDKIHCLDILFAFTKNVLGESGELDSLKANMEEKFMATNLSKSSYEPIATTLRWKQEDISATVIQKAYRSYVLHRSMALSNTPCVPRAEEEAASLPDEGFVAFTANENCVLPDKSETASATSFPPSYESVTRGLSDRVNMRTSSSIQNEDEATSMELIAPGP

SMILES strings stand for the structures.

In patent publication EP4700018A1, “NAV1.8 INHIBITORS, PREPARATION METHOD THEREFOR AND USE THEREOF” (Shanghai Institute of Materia Medica, Chinese Academy of …, priority 2023, dated 2024) one finds IC50 data, which are given here for one compound.

For the test, the target named is human Nav1.8 sodium channel (Homo sapiens, UniProt Q9Y5Y9). In words: Blocking activity on sodium channel 1.8 (Nav1.8), whole-cell manual patch clamp. Format: cell-based.

Turning to `Cc1cc(F)ccc1Oc1cc(C(F)(F)F)ccc1C(=O)Nc1cc[nH]c(=O)c1` [VX-150, reference compound], the IC50 was determined as 0.0335 µM.
